Experimental findings from patent publication US20260191863A1, “PYRROLOPYRIMIDINE COMPOSITIONS FOR TREATMENT OF ITK MEDIATED CONDITIONS” (ACLARIS THERAPEUTICS, INC., priority 2022, published 2026) are described below.

Each structure is given as a SMILES string.

This assay addresses T1, ITK (Homo sapiens, UniProt Q08881).
T1 construct: (Jurkat/pPLCγ1); endogenous in cells; host or cells: Jurkat
T1 sequence (Q08881 1-620): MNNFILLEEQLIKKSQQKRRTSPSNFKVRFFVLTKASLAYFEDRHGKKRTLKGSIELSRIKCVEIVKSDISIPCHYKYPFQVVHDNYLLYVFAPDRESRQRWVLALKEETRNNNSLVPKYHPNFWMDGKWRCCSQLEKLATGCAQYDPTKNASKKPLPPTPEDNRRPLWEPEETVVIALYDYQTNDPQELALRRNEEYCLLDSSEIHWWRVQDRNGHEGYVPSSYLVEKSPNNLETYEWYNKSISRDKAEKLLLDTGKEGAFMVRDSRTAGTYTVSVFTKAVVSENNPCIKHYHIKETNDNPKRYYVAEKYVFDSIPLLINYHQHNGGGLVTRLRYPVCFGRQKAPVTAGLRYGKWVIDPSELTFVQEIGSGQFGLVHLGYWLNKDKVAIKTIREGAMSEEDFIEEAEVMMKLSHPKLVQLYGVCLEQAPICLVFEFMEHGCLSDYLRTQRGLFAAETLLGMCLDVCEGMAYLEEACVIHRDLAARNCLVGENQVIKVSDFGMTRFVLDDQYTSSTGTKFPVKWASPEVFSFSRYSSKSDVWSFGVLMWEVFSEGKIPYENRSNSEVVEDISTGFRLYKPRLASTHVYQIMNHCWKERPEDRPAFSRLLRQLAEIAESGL
The experiment in a line: Cell IC50 ITK (Jurkat/pPLCγ1). Format: cell-based. Particulars: Jurkat, pPLCγ1.

A word on the IC50: it is the concentration that inhibits the measured activity by half. The molecule `C=CC(=O)N1C[C@H](Nc2ncnc3[nH]ccc23)CC[C@@H]1C` [Ritlecitinib, reference compound] registered an IC50 of 652 nM.
